{"source": "patent US20180128811A1", "about": "“ASPIRIN RESPONSE AND REACTIVITY TEST AND ASPIRIN COMPLIANCE TEST USING SYNTHETIC COLLAGEN” (JNC Corporation, priority 2012, published 2018)", "origin": "cited, not measured here", "details": "higher doses (more than 4.0 g); cited from earlier work", "data": [{"substance": "acetylsalicylic acid [aspirin]", "values": [{"measurement": "Half-life", "result": "15 to 30", "unit": "h"}]}]}
